PubChem BioAssay (NCI)
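Growth conditions: 96-well plates. Treatment: test compound, 48 hours, 5 concentrations. Analysis: linear interpolation between bracketing concentrations; unreached endpoints set to highest concentration. At the GI50, growth is halved. TGI marks complete inhibition of growth.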

How the values were obtained:
Assay in all cases: inhibition of tumour cell growth, NCI panel, 48 h
[1] = tested on: KM20L2 colon
[2] = tested on: UO-31 renal
[3] = tested on: DMS 273 small cell lung
[4] = tested on: SNB-19 CNS
[5] = tested on: HT29 colon
[6] = tested on: MALME-3M melanoma
[7] = tested on: SNB-75 CNS
[8] = tested on: XF 498 CNS
[9] = tested on: HCT-15 colon
[10] = tested on: ACHN renal
[11] = tested on: UACC-62 melanoma
[12] = tested on: CCRF-CEM leukemia
[13] = tested on: SK-MEL-5 melanoma
[14] = tested on: SF-295 CNS
[15] = tested on: HL-60(TB) leukemia
[16] = tested on: NCI-H226 lung
[17] = tested on: A498 renal
[18] = tested on: U251 CNS
[19] = tested on: NCI-H23 lung
[20] = tested on: SR leukemia
[21] = tested on: SN12C renal
[22] = tested on: CAKI-1 renal
[23] = tested on: HOP-18 NSCLC
[24] = tested on: NCI-H522 lung
[25] = tested on: RPMI-8226 leukemia
[26] = tested on: HCT-116 colon
[27] = tested on: SF-539 CNS
[28] = tested on: K-562 leukemia
[29] = tested on: M14 melanoma
[30] = tested on: OVCAR-4 ovarian
[31] = tested on: A549 NSCLC
[32] = tested on: HOP-62 NSCLC
[33] = tested on: COLO 205 colon
[34] = tested on: SF-268 CNS
[35] = tested on: UACC-257 melanoma
[36] = tested on: M19-MEL melanoma
[37] = tested on: TK-10 renal
[38] = tested on: SK-OV-3 ovarian
[39] = tested on: LXFL 529 NSCLC
[40] = tested on: EKVX NSCLC
[41] = tested on: IGROV1 ovarian
[42] = tested on: HCC-2998 colon
[43] = tested on: NCI-H460 lung
[44] = tested on: DLD-1 colon
[45] = tested on: OVCAR-3 ovarian
[46] = tested on: OVCAR-5 ovarian
[47] = tested on: LOX IMVI melanoma
[48] = tested on: DMS 114 small cell lung
[49] = tested on: OVCAR-8 ovarian
[50] = tested on: KM12 colon
[51] = tested on: 786-0 renal
[52] = tested on: NCI-H322M lung
[53] = tested on: RXF 393 renal
[54] = tested on: MOLT-4 leukemia
[55] = tested on: SK-MEL-2 melanoma
[56] = tested on: SK-MEL-28 melanoma

With `CCOP(=O)(OCC)OP1OCC(C)(C)CO1` the GI50 [1] was 47.5 µM, the TGI [1] was over 100 µM and the GI50 [2] was over 100 µM. The TGI [2] was over 100 µM, the GI50 [3] was 46.3 µM and the TGI [3] was over 100 µM. The GI50 [4] was over 100 µM, the TGI [4] was over 100 µM and the GI50 [5] was 56.7 µM. It also gave a TGI [5] of over 100 µM, a GI50 [6] of over 100 µM and a TGI [6] of over 100 µM. The GI50 [7] was over 100 µM, the TGI [7] was over 100 µM and the GI50 [8] was over 100 µM. It also gave a TGI [8] of over 100 µM, a GI50 [9] of over 100 µM and a TGI [9] of over 100 µM. For the same compound, the GI50 [10] was over 100 µM, the TGI [10] was over 100 µM and the GI50 [11] was over 100 µM. For the same compound, the TGI [11] was over 100 µM, the GI50 [12] was 42.2 µM and the TGI [12] was over 100 µM. It also gave a GI50 [13] of over 100 µM, a TGI [13] of over 100 µM and a GI50 [14] of over 100 µM. The TGI [14] was over 100 µM, the GI50 [15] was over 100 µM and the TGI [15] was over 100 µM. The GI50 [16] was over 100 µM, the TGI [16] was over 100 µM and the GI50 [17] was over 100 µM. For the same compound, the TGI [17] was over 100 µM, the GI50 [18] was over 100 µM and the TGI [18] was over 100 µM. It also gave a GI50 [19] of over 100 µM, a TGI [19] of over 100 µM and a GI50 [20] of 26.5 µM. The TGI [20] was 51.3 µM, the GI50 [21] was over 100 µM and the TGI [21] was over 100 µM. For the same compound, the GI50 [22] was over 100 µM, the TGI [22] was over 100 µM and the GI50 [23] was over 100 µM. The TGI [23] was over 100 µM, the GI50 [24] was over 100 µM and the TGI [24] was over 100 µM. The GI50 [25] was 25.9 µM, the TGI [25] was 51.2 µM and the GI50 [26] was 20.5 µM. For the same compound, the TGI [26] was 58.3 µM, the GI50 [27] was over 100 µM and the TGI [27] was over 100 µM. The GI50 [28] was over 100 µM, the TGI [28] was over 100 µM and the GI50 [29] was over 100 µM. It also gave a TGI [29] of over 100 µM, a GI50 [30] of over 100 µM and a TGI [30] of over 100 µM. It also gave a GI50 [31] of over 100 µM, a TGI [31] of over 100 µM and a GI50 [32] of over 100 µM. The TGI [32] was over 100 µM, the GI50 [33] was 30.7 µM and the TGI [33] was over 100 µM. The GI50 [34] was 39 µM, the TGI [34] was over 100 µM and the GI50 [35] was over 100 µM. It also gave a TGI [35] of over 100 µM, a GI50 [36] of over 100 µM and a TGI [36] of over 100 µM. For the same compound, the GI50 [37] was over 100 µM, the TGI [37] was over 100 µM and the GI50 [38] was over 100 µM. It also gave a TGI [38] of over 100 µM, a GI50 [39] of over 100 µM and a TGI [39] of over 100 µM. It also gave a GI50 [40] of over 100 µM, a TGI [40] of over 100 µM and a GI50 [41] of over 100 µM. The TGI [41] was over 100 µM, the GI50 [42] was over 100 µM and the TGI [42] was over 100 µM. The GI50 [43] was 34.6 µM, the TGI [43] was over 100 µM and the GI50 [44] was 23.2 µM. For the same compound, the TGI [44] was 54.7 µM, the GI50 [45] was over 100 µM and the TGI [45] was over 100 µM. It also gave a GI50 [46] of over 100 µM, a TGI [46] of over 100 µM and a GI50 [47] of 20.1 µM. It also gave a TGI [47] of 36.7 µM, a GI50 [48] of 16 µM and a TGI [48] of 29.9 µM. The GI50 [49] was over 100 µM, the TGI [49] was over 100 µM and the GI50 [50] was over 100 µM. It also gave a TGI [50] of over 100 µM, a GI50 [51] of 79.1 µM and a TGI [51] of over 100 µM. The GI50 [52] was over 100 µM, the TGI [52] was over 100 µM and the GI50 [53] was over 100 µM. It also gave a TGI [53] of over 100 µM, a GI50 [54] of over 100 µM and a TGI [54] of over 100 µM. It also gave a GI50 [55] of over 100 µM, a TGI [55] of over 100 µM and a GI50 [56] of over 100 µM. For the same compound, the TGI [56] was over 100 µM.
